Reference: publication PMC6778148
“And” between values parts separate entries of the source, which are not always exact repeats. Equal values may be shown once.

By UniProt entry, the sequences of proteins in these tests, tags left out. Where a name states a change or a piece, a line headed by the entry shows the natural chain unless it says otherwise. Residues count along the entry.
UniProt Q71RJ2: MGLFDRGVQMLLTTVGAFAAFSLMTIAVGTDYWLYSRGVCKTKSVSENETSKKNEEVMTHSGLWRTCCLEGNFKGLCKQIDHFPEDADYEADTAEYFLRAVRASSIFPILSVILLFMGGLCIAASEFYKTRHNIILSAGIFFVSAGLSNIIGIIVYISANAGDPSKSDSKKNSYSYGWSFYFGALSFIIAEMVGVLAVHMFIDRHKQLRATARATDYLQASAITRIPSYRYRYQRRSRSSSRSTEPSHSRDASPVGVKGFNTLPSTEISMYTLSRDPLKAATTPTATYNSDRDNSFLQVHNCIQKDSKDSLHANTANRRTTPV
UniProt P31016, 61-249: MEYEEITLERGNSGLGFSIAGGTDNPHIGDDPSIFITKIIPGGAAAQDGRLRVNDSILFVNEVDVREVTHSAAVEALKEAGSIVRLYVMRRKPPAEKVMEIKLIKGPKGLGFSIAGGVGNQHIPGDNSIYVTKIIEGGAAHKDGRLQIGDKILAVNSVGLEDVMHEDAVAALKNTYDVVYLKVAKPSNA

Key:
[1] = molecular target: fluorescein-labelled divalent stargazin-derived peptide ligand; experiment: fluorescence polarisation; direct titration: 50 nM fluorescein-labelled stargazin ligand (divalent or monovalent) against increasing concentrations of PDZ domains; apparent KD
[2] = molecular target: Xph15-ETWV (Xph15 fused by a (GGS)12 linker to the ETWV PDZ domain-binding motif), biotinylated; experiment: SPR; single-cycle kinetics; biotinylated Xph clone or Xph-binding motif fusion captured on a CAP sensor chip, tandem PDZ domains as analyte (twofold dilutions); 25 °C; PBS with 500 mM NaCl pH 7.4, 0.1% Tween 20; 30 µL/min; 1:1 Langmuir model; one set of constants for each independent experiment
[3] = molecular target: Xph18-Stg (Xph18 fused by a 26-amino-acid linker to the last 13 amino acids of stargazin), biotinylated (UniProt Q71RJ2); experiment: as above
[4] = molecular target: Xph20-Stg (Xph20 fused by a 26-amino-acid linker to the last 13 amino acids of stargazin), biotinylated (UniProt Q71RJ2); experiment: as above

Row | Kd [1] | Kd [2] | Kd [3] | Kd [4] | Substance
1 | 43.3 nM | – | – | – | PSD-95 tandem PDZ domains 1 and 2 (PSD-95-12), from pET-NO (domain or fragment)
2 | – | 0.271 nM and 0.22 nM | 0.0199 nM and 0.0484 nM | 0.0374 nM and 0.0712 nM | PSD-95 tandem PDZ domains (first two PDZ domains of PSD-95, residues 61-249) (from UniProt P31016 61-249) (domain or fragment)
3 | 16.3 nM | – | – | – | PSD-93 tandem PDZ domains 1 and 2 (PSD-93-12), from pET-NO (domain or fragment)
